## Measured logP (octanol/water) values of organic chemicals

Data: OPERA 2.9 data sets, kmansouri/OPERA on GitHub.

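These are experimental values that the OPERA curators gathered from public databases to train and test their QSAR models. A listed value is a point estimate from one report or more. Method, purity and exact conditions of the single measurements are not given. The measured form (salt, isomer or mixture) is not always the one drawn. Unmarked limits or estimates from the upstream databases cannot be ruled out.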

logP is the log10 of the octanol-water partition coefficient; higher is more lipophilic.
Cells with "n/a" have no entry in this list.
"via" names the databases from which the curators took the value.

The entry for CC(=O)N[C@@H](CCCCN)C(N)=O [acetyl-lysine amide] lists logP (octanol/water) -2.82 (via OCHEM). CCCCCCS [1-Hexanethiol] is reported with logP (octanol/water) 5.35 (via PubChem). Listed for CCC(C)c1cc(S(=O)(=O)[O-])cc(-n2nc3ccccc3n2)c1O.[Na+] (stereo unspecified): logP (octanol/water) -0.24 (via eChemPortal). Listed for [N-]=[N+]=C1C=Cc2c(cccc2S(=O)(=O)[O-])C1=O.[Na+]: logP (octanol/water) -3.5 (via eChemPortal). Cc1cc(S(=O)(=O)[O-])c(/N=N/c2c(O)c(C(=O)[O-])cc3ccccc23)cc1Cl.[Ca+2] [C.I. Pigment Red 48, calcium salt (1:1)] is reported with logP (octanol/water) -0.75 (via eChemPortal). For CCCCCCCCCCCCCN [Tridecylamine] the data give logP (octanol/water) 5.1 (via OCHEM).

CNCC[N@@](C)CCN has logP (octanol/water) -0.92 (via OCHEM). CCN(CC)c1ccc(C(=C2C=CC(=[N+](CC)CC)C=C2)c2ccccc2)cc1.O=S(=O)([O-])O [Brilliant Green] is reported with logP (octanol/water) 0.765 (via eChemPortal). Cc1ccc2c(c1)C(=O)c1ccccc1C2=O [2-Methylanthraquinone] is reported with logP (octanol/water) 3.406 (via eChemPortal). OCCN(CCO)C(CO)(CO)CO is reported with logP (octanol/water) -2.26 (via eChemPortal). For COCCOCOCCOC [2,5,7,10-Tetraoxaundecane] the data give logP (octanol/water) -0.69 (via eChemPortal). C[N+](C)(C)CCO.[OH-] [Choline hydroxide] is reported with logP (octanol/water) -2.25 (via eChemPortal).

C=C(Br)C(F)(F)F [1-Propene, 2-bromo-3,3,3-trifluoro-] has logP (octanol/water) 2.7 (via eChemPortal). For CCCCNc1cc(-c2nc(N)n[nH]2)ccn1 [4-(3-Amino-1H-1,2,4-triazol-5-yl)-N-butylpyridin-2-amine] the data give logP (octanol/water) 2.15 (via OCHEM). COc1ccccc1N1CCN(CCNC(=N)C2CCCCC2)CC1 has logP (octanol/water) 3.4 (via OCHEM). Listed for COC[P+](c1ccccc1)(c1ccccc1)c1ccccc1.[Cl-] [(Methoxymethyl)(triphenyl)phosphanium chloride]: logP (octanol/water) -1.17 (via eChemPortal). The entry for COc1ccc(C(=O)Nc2ccc(C3=NNC(=O)CC3C)cc2[N+](=O)[O-])cc1 (stereo unspecified) lists logP (octanol/water) 3.4 (via eChemPortal). C[N+](C)(C)c1ccc2ccc(O)c(/N=N/c3ccc(N)c([N+](=O)[O-])c3)c2c1.[Cl-] is reported with logP (octanol/water) 2.736 (via eChemPortal).

COC(C)OC [1,1-Dimethoxyethane] is reported with logP (octanol/water) 0.63 (via eChemPortal). CNc1ncnc2c1ncn2[C@@H]1OC(CO)C[C@@H]1F (some centres undefined) is reported with logP (octanol/water) 0.27 (via OCHEM). Listed for CC1c2nc3ccccc3c(=O)n2CN1CCO (stereo unspecified): logP (octanol/water) 0.46 (via OCHEM). The entry for O=S(=O)([O-])c1cccc(Nc2ccc3cc(S(=O)(=O)[O-])c(/N=N\c4ccc(ON=[N+]([O-])c5ccc(/N=N\c6c(S(=O)(=O)[O-])cc7ccc(Nc8cccc(S(=O)(=O)[O-])c8)cc7c6[O-])c([O-])c5)cc4[O-])c([O-])c3c2)c1.[Cu+2].[Cu+2].[NH4+].[NH4+].[Na+].[Na+] lists logP (octanol/water) -5.003 (via eChemPortal). Listed for O=C(O)Cc1ccccc1Nc1c(Cl)cccc1I [2-[(2-Chloro-6-iodophenyl)amino]benzeneacetic acid]: logP (octanol/water) 4.8 (via OCHEM). Listed for CC(O)=NC(C(=N)O)C(C)C (stereo unspecified) [2-[(1-Hydroxyethylidene)amino]-3-methylbutanimidic acid]: logP (octanol/water) -0.61 (via OCHEM).

Listed for CC(=O)N(CCO)c1c(I)c(C(=O)N(C)CC(O)CO)c(I)c(C(=O)N(C)CC(O)CO)c1I (stereo unspecified): logP (octanol/water) -2.28 (via OCHEM). Listed for Oc1ccc(N=Nc2ccccc2)cc1 [4-Hydroxyazobenzene]: logP (octanol/water) 3.57 (via OCHEM). For CCCCn1c(N2CCN(c3ccccc3)CC2)c(C=C2SC(=S)N(Cc3ccccc3Cl)C2=O)c(C)c(C#N)c1=O the data give logP (octanol/water) 0.72 (via OCHEM). For CCOC(=O)Nc1ccc2nn(C)nc2c1 [Ethyl (2-methyl-2H-benzotriazol-5-yl)carbamate] the data give logP (octanol/water) 1.83 (via OCHEM). For CCS [Ethanethiol] the data give logP (octanol/water) 1.5 (via PubChem). Listed for O=C1c2ccccc2C(=O)N1CCS(=O)(=O)O.[K+]: logP (octanol/water) -2.934 (via eChemPortal).

Listed for Cc1ccc(N(C)/N=C/C2=[N+](C)c3ccccc3C2(C)C)cc1.[Cl-]: logP (octanol/water) -0.609 (via eChemPortal). C[Si](C)(C)O[Si](C)(C)O[Si](C)(C)O[Si](C)(C)O[Si](C)(C)O[Si](C)(C)O[Si](C)(C)C [Hexadecamethylheptasiloxane] has logP (octanol/water) 7.2 (via OCHEM). CN(C)CCCNC(=O)NCCCN(C)C [1,3-Bis(3-(dimethylamino)propyl)urea] has logP (octanol/water) 0.817 (via eChemPortal). For Cc1ccc(NS(=O)(=O)c2cc(/N=N/c3c(N)ccc4cc(S(=O)(=O)[O-])cc(O)c34)ccc2Cl)c(C)c1.[Na+] the data give logP (octanol/water) -0.606 (via eChemPortal).

Extract of 5 entries:

compound	name	logP (octanol/water)	via
COc1ccccc1N1CCN(CCNC(=N)C2CCCCC2)CC1	n/a	3.4	OCHEM
COC[P+](c1ccccc1)(c1ccccc1)c1ccccc1.[Cl-]	(Methoxymethyl)(triphenyl)phosphanium chloride	-1.17	eChemPortal
CNCC[N@@](C)CCN	n/a	-0.92	OCHEM
COC(C)OC	1,1-Dimethoxyethane	0.63	eChemPortal
CC(=O)N[C@@H](CCCCN)C(N)=O	acetyl-lysine amide	-2.82	OCHEM